Experimental data from ChEMBL document CHEMBL3526124, “Optimized experimental design for the estimation of enzyme kinetic parameters: an experimental evaluation” (Drug Metab Dispos, 2012).

System: Liver microsome
Assay: Drug metabolism in human liver microsomes assessed as intrinsic clearance per mg protein by optimal design approach

Question: Which CLH does the source give for `O=C(O)Cc1ccccc1Nc1c(Cl)cccc1Cl` [DICLOFENAC] here?
Answer: Its CLH is 135 µL/min/g.
